Experimental data taken from patent publication US6613795B2, “Enantiomerically pure basic arylcycloalkylhydroxycarboxylic esters, processes for their preparation and their use in medicaments” (priority 1996, dated 2003).

Protein sequences, listed by entry. Tags and fused reporters are not part of them. Lines headed by an entry give the natural chain unless they say otherwise; changes in a name come on top.
UniProt P11229: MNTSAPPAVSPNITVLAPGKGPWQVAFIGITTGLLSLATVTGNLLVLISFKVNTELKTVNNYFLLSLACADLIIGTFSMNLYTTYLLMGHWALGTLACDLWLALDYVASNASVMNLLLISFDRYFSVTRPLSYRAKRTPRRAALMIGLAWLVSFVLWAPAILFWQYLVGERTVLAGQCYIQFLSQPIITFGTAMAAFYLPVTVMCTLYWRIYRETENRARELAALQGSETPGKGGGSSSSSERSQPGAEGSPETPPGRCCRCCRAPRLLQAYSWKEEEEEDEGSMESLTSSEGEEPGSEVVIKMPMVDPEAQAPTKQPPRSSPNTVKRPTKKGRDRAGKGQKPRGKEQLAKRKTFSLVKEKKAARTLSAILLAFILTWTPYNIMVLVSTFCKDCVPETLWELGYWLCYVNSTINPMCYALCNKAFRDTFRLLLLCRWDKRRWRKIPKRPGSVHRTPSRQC

Legend:
[1] = target: T1, human M1 receptors (Homo sapiens, UniProt P11229); assay: [3H]-NMS binding studies, M1 receptors from CHO-K1 cells
T1 construct: expressed in transfected cells; host or cells: CHO-K1

[2] = system: M1; settings: rabbit vas deferens

SMILES	Ki [1]	PA2 RVD (M1) [2]
C[N+]1(C)CC[C@H](OC(=O)[C@@](O)(c2ccccc2)C2CCCC2)C1 [Ia, (3S,2′S)-3-[(cyclopentylhydroxyphenylacetyl)oxy]-1,1-dimethylpyrrolidinium iodide]	4.37 nM	8.22
C[N+]1(C)CC[C@H](OC(=O)[C@](O)(c2ccccc2)C2CCCC2)C1 [Ib, (3S,2′R)-3-[(cyclopentylhydroxyphenylacetyl)oxy]-1,1-dimethylpyrrolidinium iodide]	0.0331 nM	10.40
C[N+]1(C)CC[C@@H](OC(=O)[C@](O)(c2ccccc2)C2CCCC2)C1 [Ic, (3R,2′R)-3-[(cyclopentylhydroxyphenylacetyl)oxy]-1,1-dimethylpyrrolidinium iodide]	0.0661 nM	–
C[N+]1(C)CC[C@@H](OC(=O)[C@@](O)(c2ccccc2)C2CCCC2)C1 [Id, (3R,2′S)-3-[(cyclopentylhydroxyphenylacetyl)oxy]-1,1-dimethylpyrrolidinium iodide]	0.437 nM	9.53
